# In patent US9757330B2, “Recipe for in-situ gel, and implant, drug delivery system formed thereby” (INDUSTRIAL TECHNOLOGY RESEARCH INSTITUTE, priority 2013, dated 2017):
# Conditions: agarose/urea in-situ hydrogel, 5 ml PBS, on the 14 day
substance,measurement,value
bovine serum albumin [BSA],release of BSA from the in-situ hydrogel,79%
